1 molecule from article PMC7222171 (Cellular and Molecular Immunology, 2020) can be followed below.

Amino acid sequences for entries named in this document (tags omitted). Residues count along the entry.
UniProt Q9WMX2, 384-661: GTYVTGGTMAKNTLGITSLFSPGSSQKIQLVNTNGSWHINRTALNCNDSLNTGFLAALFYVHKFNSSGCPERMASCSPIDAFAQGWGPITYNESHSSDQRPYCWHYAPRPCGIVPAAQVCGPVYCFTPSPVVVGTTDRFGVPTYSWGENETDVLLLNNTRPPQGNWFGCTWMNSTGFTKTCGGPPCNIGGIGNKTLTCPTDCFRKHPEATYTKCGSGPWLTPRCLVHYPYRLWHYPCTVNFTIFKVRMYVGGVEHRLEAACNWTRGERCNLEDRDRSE

For the assay, the target named is Con1 E2 soluble fragment, amino acids 384–661 (wild type) (Hepatitis C virus genotype 1b, Con1, UniProt Q9WMX2). Nature of the assay: ELISA. (In an ELISA, binding on a coated surface is turned into a signal by an enzyme label.)

B1: AR3C (antibody, V domains shown)
VH: VQLLEQSGAEVKKPGSSVKVSCETSGGTFDNYALNWVRQAPGQGLEWIGGVVPLFGTTRNAQKFQGRVTISDDKSTGTGHMELRSLRSEDTAVYYCVRSVTPRYCGGGFCYGEFDYWGQGTLVTVSS
VL: EIELTQSPATLSVSPGERATLSCRASQSVSSNLAWYQQKPGQAPRLLIYGASTRATGIPARFSGSGSGTEFTLTVSRLEPEDSAVYFCQQYYRSPLTFGGGTKVEIK
Turning to B1, the binding result is recorded as “binds”.
